How the values were obtained:
[1] = cited from earlier work
[2] = Single administration of 50 mg REVIA tablets to 36 healthy adult male volunteers (ANDA #075434); conditions: single 50 mg REVIA tablet

Oc1ccc2c3c1O[C@H]1[C@H](O)CC[C@@]4(O)[C@@H](C2)N(CC2CC2)CC[C@]314 [6-β-naltrexol]
accumulation ([1]; after 100 mg daily doses): do not accumulate | mean elimination half-life ([1]; immediate release oral): up to 13 hours | dose proportionality of AUC and Cmax ([1]; over the range of 50-200 mg): dose-proportional | systemic exposure relative to naltrexone [2]: over 10 fold

— patent US20240366505A1, “Liquid Resin Extended-Release Oral Naltrexone Formulation for Treating Autism-Related Disorders” (AARDVARK THERAPEUTICS, INC., priority 2022, published 2024)
